Bioassay records deposited in PubChem by ICCB-Longwood Screening Facility, Harvard Medical School.
Only some compounds are listed: those with a hit (about 0.43% of all), similar ones and a draw of the others.
GIV-Gai inh: inhibitors of GIV GBA-motif binding to rat Galpha-i3; P08753; Galpha-i3/FITC-GIV peptide fluorescence polarization, 90 min; hits give low values; scaled: aluminum fluoride 0%, vehicle 100%; percent of control (FP), % (no concentration beside the values); hit rate 0.42% among 210,000; AID 1224905;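 active = replicate mean at 85% of control or lower, very high polarization wells dropped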;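 note: wells of about 15 µL received 100 nL stock; the first replicate is given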
HCMV NEC inh: inhibitors of HCMV UL50-UL53 interaction, biochemical, HTRF; HCMV UL50-UL53 nuclear egress complex (human cytomegalovirus); AID 1918969, 2023; actives 0.15% (n = 190,000); inhibition, % (test concentration not listed); normalized percent inhibition; in the data active = inhibition above about 27%, passing the limit was not always enough
An asterisk follows results filed as active; nt = not tested or not shown.

The first 4 compounds, ahead of the listing:
The line under a structure holds: GIV-Gai inh, HCMV NEC inh
CSc1nnc2c(n1)OC1(Nc3ccccc3-2)C(=O)Nc2ccc(Cl)cc21 (stereo not drawn)
 : 100.0, 50.4*
Cc1ccc(C)c(Cn2cnc3oc(C)c(C)c3c2=O)c1
 : 98.1, -15.2
CC(C)c1ccc(C2Oc3ccccc3C3CC(c4ccc(Br)cc4)=NN32)cc1 (stereo not drawn)
 : 97.9, -1.7
CC(C)(C)c1ccc(C2Oc3ccccc3C3CC(c4ccc(Br)cc4)=NN32)cc1 (stereo not drawn)
 : 101.6, 42.5*

This part in full (from the top)
The line under a structure holds: GIV-Gai inh, HCMV NEC inh
CSc1nnc2c(n1)OC1(Nc3ccccc3-2)C(=O)Nc2ccc(Cl)cc21 (stereo not drawn)
 : 100.0, 50.4*
Cc1ccc(C)c(Cn2cnc3oc(C)c(C)c3c2=O)c1
 : 98.1, -15.2
CC(C)c1ccc(C2Oc3ccccc3C3CC(c4ccc(Br)cc4)=NN32)cc1 (stereo not drawn)
 : 97.9, -1.7
CC(C)(C)c1ccc(C2Oc3ccccc3C3CC(c4ccc(Br)cc4)=NN32)cc1 (stereo not drawn)
 : 101.6, 42.5*
CCN(CC)CC1OCc2ccccc2CO1
 : 103.1, -9.0
COc1cc2c(cc1OC)NC(=O)C2
 : 96.8, 63.6*
COc1cc2c(cc1OC)C(c1ccccc1)CC(=O)N2 (stereo not drawn)
 : 106.6, 6.1
O=C(CSc1nc(=O)n(Cc2ccncc2)c2c1CCC2)NC1CCCC1
 : 102.1, nt
O=S(=O)(/N=C/c1c(O)ccc2ccccc12)c1ccccc1
 : 98.5, nt
O=S(=O)(c1ccc(N=Cc2c(O)ccc3ccccc23)cc1)N1CCCCC1
 : nt, 76.1*
O=c1[nH]c(=O)n(-c2ccccc2)c(O)c1C=Nc1ccc(S(=O)(=O)N2CCCCC2)cc1
 : 106.3, -8.4
NS(=O)(=O)c1ccc(N=Cc2c(O)ccc3ccccc23)cc1
 : nt, 96.6*
COCc1cc(C)nc2sc3c(=O)n(-c4ccc([N+](=O)[O-])cc4)nnc3c12
 : 106.9, nt
CCCN(CCC)C(=O)CSc1nc2c(sc(=S)n2-c2ccccc2C)c2nc3ccccc3n12
 : 107.8, nt
COc1ccc(N2CCN(S(=O)(=O)c3ccc(-c4cnc(C5CC5)o4)s3)CC2)cc1
 : 99.0, nt
O=S(=O)(NCCc1n[nH]c(Cc2cccc(F)c2)n1)c1ccc(F)cc1
 : 108.3, nt
COc1ccc(S(=O)(=O)n2nnc3cc(Cl)ccc32)cc1OC
 : 107.1, nt
CC(=Nc1cccc(O)c1)c1sc2ccccc2c1O
 : 174.8, -65.5
CC(=Nc1cccc(Br)c1)c1sc2ccccc2c1O
 : 56.4*, -31.9
CN1CC2(C)CN(C(=O)c3ccccc3Cl)CC(C)(C1)C2
 : 102.8, -10.3
O=c1c2ccccc2n2c(-c3ccc(F)c(F)c3)nnc2n1CCc1ccccc1
 : 95.4, -7.0
O=c1c2ccccc2n2c(-c3ccc(Cl)cc3)nnc2n1CCc1ccccc1
 : 100.3, 58.6*
COCc1nc2ccccc2n1Cc1ccccc1Cl
 : nt, -8.0
CC(C)CNC(=O)C1CCN(c2ccc(-c3ccccc3)nn2)CC1
 : 102.8, -39.6
CCCCCCCNC(=O)C1CCN(c2ccc(-c3ccccc3)nn2)CC1
 : 98.3, 31.0*
CCS(=O)(=O)c1ccc(-c2ccc(NC(=O)CCC3CCCCC3)cc2)nn1
 : 99.6, 4.6
O=C1c2cnccc2CN1c1cc(F)ccc1F
 : 108.0, 34.9*
COC(=O)c1sccc1N1Cc2ccncc2C1=O
 : 104.9, -29.6
CN1c2cc(Cl)ccc2-c2nc(SCC(=O)NC3CCCC3)ncc2S1(=O)=O
 : 103.4, 75.1*
CN1c2cc(Cl)ccc2-c2nc(SCC(N)=O)ncc2S1(=O)=O
 : 105.3, 1.9
O=C(CCCCCn1c(=S)[nH]c2ccc(Br)cc2c1=O)NCCCN1CCOCC1
 : 105.9, nt
CC(=O)N1CC=C2C(C#N)=C(N)C(C#N)(C#N)[C@H](c3ccc(F)cc3F)[C@H]2C1
 : nt, -35.5
CCCN1CC=C2C(C#N)=C(N)C(C#N)(C#N)C(c3ccc(F)cc3F)C2C1 (stereo not drawn)
 : 44.1*, -39.6
Cc1ccc(C(=O)Oc2ccc(C(c3c(C)[nH]n(-c4ccccc4)c3=O)c3c(C)[nH]n(-c4ccccc4)c3=O)cc2)cc1
 : 113.5, nt
O=C(NCCO)c1cnc2sc3c(n2c1=O)CCCC3
 : 111.1, -30.6
CC(=O)OCc1cc(C2C(C#N)=C(N)OC(N)=C2C#N)c(C)cc1C
 : -1.1*, nt
CCOC(=O)C1=C(C)OC(N)=C(C#N)C1c1ccccc1C (stereo not drawn)
 : 108.4, nt
CN(C)c1ccc(/C=C/C(=C(C#N)C#N)C2CC2)cc1
 : -45.0*, -39.2
N#CC(C#N)=C(/C=C/c1ccccc1)C1CC1
 : nt, -2.8
COc1cccc(-c2nn(Cc3ccccc3C)c(=O)c3noc(C)c23)c1
 : 121.1, -40.0
CC(=O)OCCCN1/C(=C\C=C\c2n(CCCOC(C)=O)c3cc(Cl)c(Cl)cc3[n+]2C)N(C)c2cc(Cl)c(Cl)cc21
 : 59.7*, nt
CCOC(=O)c1cc2c(cc1C(=O)OCC)[n+](CC)c(/C=C/C=C1N(CC)c3cc(Cl)c(Cl)cc3N1CC)n2CC
 : 121.5, nt
COc1ccc(C2CC(=O)C3=C(C2)NC(C)=C(C(=O)OC(C)C)C3c2ccccc2Cl)cc1OC (stereo not drawn)
 : 101.7, -2.3
COc1ccc(N2C(=O)NC(=O)/C(=C\c3cc(Br)c(N4CCOCC4)o3)C2=O)cc1
 : 110.8, 0.3
O=C1NC(=O)N(c2ccc(Br)cc2)C(=O)/C1=C/c1ccc(N2CCOCC2)o1
 : 16.3*, -112.8
Cc1csc(NC(=O)COc2ccccc2-c2nc(C(C)C)no2)n1
 : 100.7, -17.5
